Legend:
[1] = tested on: LNCaP tumor-transplanted mouse; assay: Internal radioactivity distribution using LNCaP tumor-transplanted mouse; assay type: in vivo; details: 24 hours after administration
Procedure: The animal test was performed in compliance with the guidelines of Kyoto University Animal Experiment Committee. Male CB17/IcrJcl-Prkdc^scid mice were purchased from CLEA Japan, Inc. The animals were kept under 12 h/12 h, day/night cycle conditions and fed ad libitum with food and water. LNCaP cells (1.0×10^7 cells/mouse) or PC-3 cells (1.0×10^7 cells/mouse) were suspended in a mixture of PBS and Matrigel manufactured by Corning Life Sciences (1:1, 150 μL) and the suspension was subcutaneously transplanted to the right shoulder of mice under isoflurane anesthesia. Thereafter, the mice were kept for 40 to 60 days.
LNCaP or PC-3 tumor-implanted mice were administered saline solutions (185 kBq, 100 μL) of [^111In]In-PSMA-DA1 or [^111In]In-PSMA-DB from the tail vein (n=3 each). […] Thereafter, blood and each organ were recovered, and the mass and radioactivity of the organs were measured.
The percentage (% ID) of the radioactivity amount to the administered radioactivity amount (injected dose) is shown as the value (% ID/g) divided by the blood mass or the organ mass (g).
LNCaP tumor-implanted mice prepared by the same method as in Example 1-1 were administered a saline solution (241 kBq/100 μL) of [^111In]In-PtDA from the tail vein (n=3). […] Thereafter, blood and each organ were recovered, and the mass and radioactivity of the organs were measured. […]

Sequences of proteins named here, by UniProt entry; tags and fusion partners are left off. Residues count along the entry.
UniProt P02768, 25-609: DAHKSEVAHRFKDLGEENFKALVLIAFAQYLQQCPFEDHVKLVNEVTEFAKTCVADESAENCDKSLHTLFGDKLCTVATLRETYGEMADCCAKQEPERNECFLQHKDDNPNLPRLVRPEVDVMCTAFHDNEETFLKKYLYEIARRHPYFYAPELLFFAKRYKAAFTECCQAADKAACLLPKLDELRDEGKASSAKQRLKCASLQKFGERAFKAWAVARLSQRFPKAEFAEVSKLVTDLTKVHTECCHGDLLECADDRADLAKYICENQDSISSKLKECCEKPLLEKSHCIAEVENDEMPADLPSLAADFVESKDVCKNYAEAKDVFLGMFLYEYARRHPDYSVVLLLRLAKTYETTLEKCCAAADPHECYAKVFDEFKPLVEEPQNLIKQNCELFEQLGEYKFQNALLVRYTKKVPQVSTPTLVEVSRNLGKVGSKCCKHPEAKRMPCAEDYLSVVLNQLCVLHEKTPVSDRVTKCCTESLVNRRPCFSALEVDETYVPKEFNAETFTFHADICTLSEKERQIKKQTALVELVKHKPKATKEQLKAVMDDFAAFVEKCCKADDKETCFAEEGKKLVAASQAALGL

[2] = target: human serum albumin (HSA) (Homo sapiens, UniProt P02768); assay: Evaluation of binding to albumin (HSA solution, PBS control)
Procedure: Thereafter, the reaction liquids were added to a spin column (Sephadex G-100; manufactured by Cytiva), and centrifuged at 1500×g at 4° C. for 2 minutes. After separation, the radioactivity for each of the column and the eluate was measured with a gamma counter.
When a compound to be evaluated binds to albumin to form a composite, the compound passes through the column because of the increased molecular size.
As in Examples described above, PBS and human albumin were used to evaluate binding to albumin.
Thereafter, the reaction liquid was added to a spin column (Sephadex G-50; manufactured by Cytiva), and centrifuged at 1500×g at 4° C. for 2 minutes. After separation, the radioactivity of the column and the eluate was measured with a gamma counter.

O=C(O)CC[C@H](NC(=O)N[C@@H](CCCCNC(=O)[C@H](Cc1ccc2ccccc2c1)NC(=O)[C@H]1CC[C@H](CNC(=O)CCC(C(=O)O)N2CCN(CC(=O)O)CCN(C(CCC(=O)N[C@@H](CCCCNC(=O)CCCc3ccc(I)cc3)C(=O)O)C(=O)O)CCN(CC(=O)O)CC2)CC1)C(=O)O)C(=O)O (stereo partly drawn) [[^111In]In-PSMA-NAT-DA1, metal not drawn]
tumor/kidney ratio [1]: exceeded 1
radioactivity in the eluate (in words) ([2]; left to stand in HSA solution (45 mg/mL)): significantly high
radioactivity in the eluate (in words) ([2]; left to stand in PBS): no significant radioactivity

Reference: US20240174622A1, “COMPOUND AND RADIOACTIVE LABELING COMPOUND” (NIHON MEDI-PHYSICS CO., LTD., priority 2021, published 2024)
